Which results are given for Baby Blue acetamidobenzyl EDTA [BBA]?
excretory route, share via liver (in the presence of CHA255 (20 µg and 200 µg)): about 50%; tissue penetration (without antibody (Table II)): negligible

From EP0217577B1, “Antibody complexes of hapten-modified diagnostic or therapeutic agents” (HYBRITECH INCORPORATED, priority 1985, dated 1987)
